Target: T1, integrin αIIbβ3 (Homo sapiens, UniProt P05106+P08514)
T1 construct: host or cells: CHO (Chinese hamster ovary) cells
Assay: Cell adhesion assay: CHO-αIIbβ3 cells to fibrinogen
Type: cell-based
Conditions: Table 4; CHO-αIIbβ3 cells to immobilized fibrinogen
Description: A cell adhesion assay was used to determine the inhibitory activity of Rho, TMV, and their variants and was conducted according to previously described protocols. 96-well microtiter plates (Costar; Corning) were coated with 100 μL PBS buffer containing 200 μg/mL fibrinogen or 50 μg/mL fibronectin, and incubated overnight at 4° C. Non-specific protein binding sites were blocked by incubating each well with 200 μL of heat-denatured 1% bovine serum albumin (BSA) (Calbiochem) at room temperature for 1.5 h. The heat-denatured BSA was discarded and each well was washed twice with 200 μL PBS.
Chinese hamster ovary (CHO) cells that expressed integrins αvβ3 (CHO-αvβ3) and αIIbβ3 (CHO-αIIbβ3) were kindly provided by Dr. Y. Takada (Scripps Research Institute) and maintained in Dulbecco's modified Eagle's medium (18, 27). Human erythroleukemia K562 cell was purchased from ATCC and cultured in Roswell Park Memorial Institute (RPMI)—1640 medium containing 10% fetal bovine serum (FBS). Harvested K562 cells were resuspended in RPMI-1640 medium containing 5% FBS. […]
The adhesions of CHO-αIIbβ3 cells to fibrinogen, CHO-αvβ3 cells to fibrinogen, and K562 cells to fibronectin were used to determine the inhibitory activities of tested protein to integrins αIIbβ3, αvβ3, and α5β1. […] The resulting absorbance was read at 600 nm and the readings were correlated with the number of adhering cells. […]

Chains of the proteins cited; added tags and fusions are not shown. Residues count along the entry.
UniProt P05106, 27-788: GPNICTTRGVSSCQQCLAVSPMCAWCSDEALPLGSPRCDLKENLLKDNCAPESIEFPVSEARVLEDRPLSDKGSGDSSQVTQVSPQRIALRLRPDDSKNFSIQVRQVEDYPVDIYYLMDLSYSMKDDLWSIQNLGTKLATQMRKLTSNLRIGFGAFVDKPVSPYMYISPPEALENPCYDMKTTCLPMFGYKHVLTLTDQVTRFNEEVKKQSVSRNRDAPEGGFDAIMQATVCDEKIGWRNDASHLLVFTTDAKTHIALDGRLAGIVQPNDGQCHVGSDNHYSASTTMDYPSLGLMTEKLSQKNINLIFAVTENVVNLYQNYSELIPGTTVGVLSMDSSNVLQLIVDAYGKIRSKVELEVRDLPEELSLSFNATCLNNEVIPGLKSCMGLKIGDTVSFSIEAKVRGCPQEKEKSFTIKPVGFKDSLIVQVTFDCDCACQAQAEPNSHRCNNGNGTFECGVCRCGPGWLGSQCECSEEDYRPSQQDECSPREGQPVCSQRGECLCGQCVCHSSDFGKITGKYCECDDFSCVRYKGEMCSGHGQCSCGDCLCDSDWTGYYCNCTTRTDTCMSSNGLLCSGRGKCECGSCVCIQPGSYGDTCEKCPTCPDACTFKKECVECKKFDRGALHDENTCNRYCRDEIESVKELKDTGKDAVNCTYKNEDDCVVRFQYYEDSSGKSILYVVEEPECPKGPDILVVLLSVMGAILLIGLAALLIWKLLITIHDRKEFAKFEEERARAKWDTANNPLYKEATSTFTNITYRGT
UniProt P08514, 32-887 limits assumed: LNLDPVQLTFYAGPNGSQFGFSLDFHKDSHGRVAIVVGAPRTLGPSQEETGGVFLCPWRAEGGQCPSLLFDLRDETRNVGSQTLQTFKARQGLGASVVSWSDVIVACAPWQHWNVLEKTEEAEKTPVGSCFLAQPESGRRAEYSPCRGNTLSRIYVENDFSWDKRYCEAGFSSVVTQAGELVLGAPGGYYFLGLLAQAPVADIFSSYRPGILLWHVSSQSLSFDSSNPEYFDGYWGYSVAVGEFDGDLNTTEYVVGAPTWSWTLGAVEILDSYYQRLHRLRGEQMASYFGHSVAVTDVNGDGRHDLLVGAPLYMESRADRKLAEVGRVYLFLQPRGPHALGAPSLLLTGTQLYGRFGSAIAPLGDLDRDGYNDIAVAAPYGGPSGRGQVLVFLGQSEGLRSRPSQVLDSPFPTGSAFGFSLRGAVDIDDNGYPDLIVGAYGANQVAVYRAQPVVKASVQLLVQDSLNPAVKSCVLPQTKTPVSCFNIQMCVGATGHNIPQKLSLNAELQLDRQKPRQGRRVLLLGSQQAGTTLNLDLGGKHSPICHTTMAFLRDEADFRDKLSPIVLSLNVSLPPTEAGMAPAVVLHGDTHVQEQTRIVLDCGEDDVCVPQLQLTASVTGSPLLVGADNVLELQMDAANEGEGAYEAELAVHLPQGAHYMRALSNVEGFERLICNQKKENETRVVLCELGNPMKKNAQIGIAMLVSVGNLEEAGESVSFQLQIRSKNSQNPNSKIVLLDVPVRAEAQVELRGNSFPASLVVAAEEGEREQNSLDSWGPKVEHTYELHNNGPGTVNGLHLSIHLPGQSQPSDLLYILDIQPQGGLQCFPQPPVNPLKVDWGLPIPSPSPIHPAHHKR
UniProt P08514, 891-1039 partner limits assumed: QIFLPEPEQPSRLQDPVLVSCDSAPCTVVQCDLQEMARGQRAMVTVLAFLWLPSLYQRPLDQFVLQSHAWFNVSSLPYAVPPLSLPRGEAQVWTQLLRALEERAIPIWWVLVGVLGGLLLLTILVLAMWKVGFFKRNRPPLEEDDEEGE

## Rhodostomin
  IC50: 52.2 ± 8.2 nM

— patent US11202854B2, “Disintegrin variants and uses thereof” (National Taiwan University, priority 2017, dated 2021)
